Consider 62 compounds from PubChem BioAssay AID602363 (Broad Institute, 2012).

Screen size: about 350,000 compounds; about 450 (0.13%) were called active. This excerpt belongs to a sample that is enriched for actives. Values without a mark were called inactive.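 How the source made its calls: active means replicate mean at a twofold rise or more (about +100% in these data); inactive means the rest.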

The nature of the experiment: UUG initiation codon usage in yeast – whole organism, S. cerevisiae, single point, plate reader, primary screen (AID 602363).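 Further: firefly luciferase made from a UUG start codon reports start codon fidelity.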 Particulars: S. cerevisiae UUG-firefly luciferase reporter, luminescence/redox ratio; at 18.7 µM; stronger effect = higher value. (In general: A reporter such as luciferase makes a cellular process visible.)
Regarding `COc1ccc(NC(=O)Nc2cccc3c2O[C@@H](CN(C)Cc2ccncc2)[C@H](C)CN([C@H](C)CO)C3=O)cc1`, the activity score was -5.85%.
For the compound `CC(C)C#Cc1ccc2c(c1)O[C@@H](CN(C)C(=O)Nc1ccccc1)[C@H](C)CN([C@H](C)CO)S2(=O)=O`, the activity score is -2.56%.
As for `CCC(=O)N(C)C[C@@H]1Oc2ncc(C#CCC3CCCC3)cc2C(=O)N([C@@H](C)CO)C[C@H]1C`, the figure is 5.33%; as for `O=C(c1ccncc1)N1C[C@H]2[C@@H](c3ccccc31)[C@H](CO)N2C(=O)c1ccccn1`, -20.1%; as for `O=C(N[C@H]1CC[C@@H](CCNS(=O)(=O)c2ccc(Cl)cc2)O[C@H]1CO)c1cccc(F)c1`, 12.6%.
On to `CC(C)CC#Cc1cnc2c(c1)C(=O)N([C@H](C)CO)C[C@H](C)[C@@H](CN(C)Cc1ccccc1)O2`, for which the activity score is 16.5%.
Consider `C[C@H](CO)N1C[C@H](C)[C@@H](CN(C)C(=O)C2CCCCC2)Oc2cc(-c3ccccc3)ccc2S1(=O)=O`, for which the activity score is 9.53%.
For `C[C@H]1CN([C@@H](C)CO)C(=O)c2cc(NC(=O)Cn3cnnn3)ccc2O[C@@H]1CN(C)S(=O)(=O)c1cccs1`, the activity score was -10.2%.
`O=C(O)C[C@@H]1C[C@@H]2c3cc(NC(=O)NC4CCCC4)ccc3O[C@@H]2[C@H](CO)O1`: the activity score was -9.94%.
The figure for `COc1cccc(S(=O)(=O)Nc2ccc3c(c2)[C@H]2C[C@H](CC(=O)O)O[C@H](CO)[C@H]2O3)c1` is -0.528%.
Take `Cc1noc(C)c1NC(=O)Nc1ccc2c(c1)C(=O)N([C@H](C)CO)C[C@H](C)[C@@H](CN(C)Cc1ccc3c(c1)OCO3)OCCCC[C@@H](C)O2`: the activity score was -5.08%.
In the case of `C[C@@H]1CN([C@@H](C)CO)C(=O)c2cc(C#CC(C)(C)O)cnc2O[C@@H]1CN(C)C(=O)C1CCOCC1`, the activity score was -1.48%.
With `Cc1cccc(NC(=O)CN2C(=O)CNC2=O)c1`, the activity score is -17.5%.
Take `CCc1ccc(NC(=O)CN2C(=O)CSC2=O)cc1`: the activity score was -4.72%.
`CC(=O)N1CC(=O)N(CC(=O)Nc2ccc(Br)cc2)C1=S`: the activity score is 120% (active).
Regarding `CCCNC(=O)N(C)C[C@H]1Oc2ncc(C#CC(C)C)cc2C(=O)N([C@@H](C)CO)C[C@@H]1C`, the activity score was 11.9%.
For `CO[C@H]1CN(C)C(=O)c2cc(NC(=O)c3cc(C)on3)ccc2OC[C@H](C)N(C(C)=O)C[C@H]1C`, the activity score is 7.59%.
As to `O=C(Cc1ccccn1)N[C@H]1CC[C@H](CCNS(=O)(=O)c2cccc(F)c2)O[C@@H]1CO`, the activity score was -14.5%.
As to `CC(=O)N1C[C@@H]2[C@H](c3ccccc31)[C@H](CO)N2C(=O)Nc1ccc(F)cc1`, the activity score was 27%.
Regarding `O=C(C[C@@H]1C=C[C@H](NC(=O)CCN2CCCCC2)[C@H](CO)O1)NCc1ccc(Cl)c(Cl)c1`, the activity score was -10.1%.
Turning to `O=C(NNC(=O)c1ccco1)Nc1ccccc1`, the activity score was -11.9%.
Regarding `Cc1ccc(NC(=O)c2ccco2)cc1`, the activity score was 13.9%.
Take `O=C(Nc1ccc(Oc2ccccc2)cc1)c1ccco1`: the activity score is 570% (active).
As for `CC(C)NC(=O)N1CCCCN2[C@H](CO)[C@H](c3ccc(C#C[C@H](C)O)cc3)[C@H]2C1`, the figure is 4.66%; as for `Cc1noc(C)c1S(=O)(=O)N(C)C[C@@H]1OCCCC[C@H](C)Oc2ccc(NC(=O)Nc3ccc4c(c3)OCO4)cc2C(=O)N([C@H](C)CO)C[C@@H]1C`, -17.6%.
The figure for `O=C(Nc1ccc(Cl)cc1)N1C[C@@H]2[C@H](c3ccccc31)[C@@H](CO)N2C(=O)c1cccnc1` is -17%; for `CC(C)NC(=O)Nc1ccc2c(c1)C(=O)N([C@@H](C)CO)C[C@H](C)[C@@H](CN(C)C(=O)Nc1ccc(F)cc1)OCCCC[C@H](C)O2` it is -6.2%; for `C[C@H](CO)N1C[C@H](C)[C@H](CN(C)Cc2ccc3c(c2)OCO3)Oc2c(cccc2N(C)C)C1=O` it is -9.31%.
Regarding `COc1ccc(S(=O)(=O)N(C)C[C@H]2OCCCC[C@@H](C)Oc3ccc(NC(=O)CCC(F)(F)F)cc3C(=O)N([C@@H](C)CO)C[C@H]2C)cc1`, the activity score is 1.93%.
Consider `C=CCOC(=O)[C@H]1[C@@H]2C(=O)O[C@@H](c3ccccc3)[C@@H](c3ccccc3)N2[C@@H](c2ccc(OCCOC(=O)[C@H]3C[C@H]4C(=O)NCC(=O)N4[C@H]3c3ccc(O)cc3)cc2)[C@]12C(=O)Nc1ccccc12`, for which the activity score was -7.32%.
As for `COc1ccccc1-c1cnc2c(c1)C(=O)N([C@H](C)CO)C[C@@H](C)[C@@H](CN(C)CC1CCCC1)O2`, the activity score is -0.682%.
On to `C[C@H](CO)N1C[C@H](C)[C@H](CN(C)C(=O)c2ccccn2)Oc2ncc(-c3ccccc3F)cc2C1=O`, for which the activity score is 9.71%.
As for `Cc1noc(C)c1NC(=O)N(C)C[C@@H]1Oc2ccc(NS(=O)(=O)c3ccc(Cl)cc3)cc2C(=O)N([C@@H](C)CO)C[C@H]1C`, the activity score was 9.56%.
For `C[C@H](CO)N1C[C@H](C)[C@@H](CN(C)Cc2ccc(Cl)c(Cl)c2)Oc2c(NC(=O)C3CCCCC3)cccc2C1=O`, the activity score was 0.419%.
Take `CO[C@H]1CN(C)C(=O)c2cc(NS(C)(=O)=O)ccc2OC[C@H](C)N(C(=O)C2CCCC2)C[C@H]1C`: the activity score is -1.38%.
In the case of `C[C@@H]1CN([C@H](C)CO)C(=O)Cc2cc(NS(=O)(=O)c3ccc(Cl)cc3)ccc2O[C@@H]1CN(C)S(=O)(=O)c1ccc(Cl)cc1`, the activity score was -17.9%.
As for `Cc1ccc(S(=O)(=O)N(C)C[C@@H]2Oc3ccc(NS(=O)(=O)c4c(C)noc4C)cc3CC(=O)N([C@H](C)CO)C[C@H]2C)cc1`, the activity score was 12.2%.
With `CCCNC(=O)C[C@H]1CC[C@@H]2[C@H](COc3ccc(NC(=O)c4ccc(OC)cc4)cc3C(=O)N2C)O1`, the activity score was 4.65%.
For `C[C@@H](NC(=O)C[C@H]1C[C@H]2c3cc(NC(=O)Nc4ccccc4F)ccc3O[C@H]2[C@@H](CO)O1)c1ccccc1`, the activity score is -2.05%.
Turning to `CCCNC(=O)N1C[C@@H](O)COC[C@H]2O[C@@H](CC(=O)NCCCN3CCOCC3)CC[C@@H]21`, the activity score was -4.24%.
For `C[C@@H]1CN([C@@H](C)CO)C(=O)c2cc(NS(=O)(=O)c3cccs3)ccc2O[C@@H]1CN(C)S(=O)(=O)c1ccc(F)cc1`, the activity score is 2.8%.
In the case of `C[C@@H]1CCCCO[C@@H](CN(C)S(C)(=O)=O)[C@H](C)CN([C@@H](C)CO)C(=O)c2cc(NC(=O)Nc3ccc4c(c3)OCO4)ccc2O1`, the activity score is 12.2%.
Turning to `C[C@H]1CN([C@@H](C)CO)C(=O)c2cc(-c3ccccc3F)cnc2O[C@@H]1CN(C)C(=O)C1CCCCC1`, the activity score is 12.9%.
With `CO[C@@H]1CN(C)C(=O)c2cc(NC(=O)NC3CCCCC3)ccc2OC[C@H](C)N(CC2CC2)C[C@H]1C`, the activity score was -4.52%.
As for `CC(=O)N(C)C[C@H]1Oc2cc(C#CC3CC3)ccc2S(=O)(=O)N([C@H](C)CO)C[C@@H]1C`, the figure is 22%; as for `COc1ccccc1C#Cc1ccc([C@H]2[C@H](CO)N3CCCCN(C(=O)C4CCC4)C[C@@H]23)cc1`, 29.8%; as for `Cc1ccccc1-c1cnc2c(c1)C(=O)N([C@@H](C)CO)C[C@@H](C)[C@@H](CN(C)CC1CCOCC1)O2`, -10.7%.
Turning to `C[C@@H]1CN([C@@H](C)CO)S(=O)(=O)c2ccc(C#Cc3ccc(F)cc3)cc2O[C@@H]1CN(C)CC1CC1`, the activity score is 11.3%.
Regarding `C[C@@H]1CN([C@@H](C)CO)S(=O)(=O)c2ccc(C#C[C@@H](C)O)cc2O[C@@H]1CN(C)C(=O)CN(C)C`, the activity score is -1.41%.
As to `C[C@H]1CN([C@@H](C)CO)S(=O)(=O)c2ccc(C#CCN(C)C)cc2O[C@H]1CN(C)C(=O)CN(C)C`, the activity score is 28.3%.
Turning to `C/C=C/c1ccc2c(c1)O[C@@H](CN(C)C(=O)NC1CCCC1)[C@@H](C)CN([C@H](C)CO)S2(=O)=O`, the activity score is 12.5%.
Regarding `C[C@@H]1CN([C@@H](C)CO)S(=O)(=O)c2ccc(C#Cc3ccc(F)cc3)cc2O[C@H]1CN(C)C(=O)NC1CCCC1`, the activity score was 273% (active).
Turning to `CC(C)C#Cc1ccc2c(c1)O[C@@H](CN(C)C(=O)CN(C)C)[C@@H](C)CN([C@H](C)CO)S2(=O)=O`, the activity score was 61.3% (active).
As for `Cc1ccc(S(=O)(=O)N(C)C[C@@H]2Oc3ccc(NC(=O)NC4CCCCC4)cc3C(=O)N([C@@H](C)CO)C[C@H]2C)cc1`, the activity score was -6.25%.
In the case of `C[C@@H]1CN([C@@H](C)CO)S(=O)(=O)c2ccc(C#Cc3ccccc3)cc2O[C@@H]1CN(C)C(=O)C1CC1`, the activity score was -28.6%.
Regarding `COCC#Cc1cnc2c(c1)C(=O)N([C@@H](C)CO)C[C@@H](C)[C@@H](CN(C)C(=O)c1cccnc1)O2`, the activity score was -8.09%.
As for `CN1c2ccc(Br)cc2[C@@H]2[C@@H](CCN2C(=O)C2CCCCC2)[C@H]1CO`, the figure is 25.4%.
`C[C@H](CO)N1C[C@H](C)[C@H](CN(C)C(=O)Nc2cccc3ccccc23)Oc2ncc(C#Cc3ccccc3)cc2C1=O`: the activity score is -10%.
The figure for `Cc1ccccc1S(=O)(=O)N1[C@H](C#N)[C@H](c2ccccc2)[C@H]1CO` is -7.59%.
Regarding `C[C@H](CO)N1C[C@H](C)[C@H](CN(C)S(=O)(=O)c2cccs2)Oc2ccc(NS(=O)(=O)c3ccc(Cl)cc3)cc2CC1=O`, the activity score is 3.99%.
For `COc1ccc(CN(C)C[C@H]2OCCCC[C@H](C)Oc3ccc(NC(=O)Nc4ccc5c(c4)OCO5)cc3C(=O)N([C@H](C)CO)C[C@@H]2C)cc1`, the activity score is 0.433%.
With `C[C@H](CO)N1C[C@H](C)[C@H](CN(C)S(=O)(=O)c2cccs2)Oc2c(NC(=O)Nc3ccc4c(c3)OCO4)cccc2C1=O`, the activity score was 6.62%.
